From patent US6846803B1, “Antagonists specific for the corticotropin-releasing factor receptor type 2 (CRFR2)” (priority 1998, dated 2005)
Residue numbers refer to the chain shown, from its start. Read-outs that look alike come from different tables or passages of the source. Marks after values point to notes of the source that are not given here. Blank lines part the entries; values can stand above or below the molecule they belong to. Positions of bridges follow the written chain, without caps; N, C: chain ends. Non-standard residues stand in square brackets, D forms with d. No end group written: not given here. *: point of attachment. ATB = 4-(1-azi-2,2,2-trifluoroethyl)benzoyl, O=C(c1ccc(C2(C(F)(F)F)N=N2)cc1)*; Nle = CCCC[C@H](N)C(=O)O

Key:
[1] = target: T1, rCRFR1 (Rattus norvegicus, UniProt P35353); assay: Displacement of [^125I-Tyr^0]oCRF from membranes of HEK-rCRFR1 cells; format: binding
T1 construct: expressed in transfected cells; host or cells: HEK 293 cells, stably transfected (HEK-rCRFR1)
T1 sequence (P35353 24-415): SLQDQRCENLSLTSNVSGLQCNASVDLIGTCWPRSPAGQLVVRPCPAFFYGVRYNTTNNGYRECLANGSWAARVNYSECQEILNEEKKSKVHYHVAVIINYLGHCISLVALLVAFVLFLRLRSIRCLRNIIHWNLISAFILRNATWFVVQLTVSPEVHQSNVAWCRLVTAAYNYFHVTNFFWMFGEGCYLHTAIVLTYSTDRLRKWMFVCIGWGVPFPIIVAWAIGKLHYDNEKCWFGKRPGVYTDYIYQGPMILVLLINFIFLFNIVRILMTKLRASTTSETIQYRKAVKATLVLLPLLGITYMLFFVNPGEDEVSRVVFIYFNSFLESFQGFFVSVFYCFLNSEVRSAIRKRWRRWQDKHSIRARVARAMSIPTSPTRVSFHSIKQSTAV
Method: (§1) Binding assays were performed in 96-well MultiScreen plates (Millipore, Eschborn, Germany) with GF/B filters (pore size 1.0 μm). […] After incubation (60 min, 23° C.), membrane suspension was aspirated through the plate, followed by two washes with assay buffer (0.2 ml, 23°). Radioactivity of the punched filters was measured with a 1470 WIZARD automatic gamma counter (Berthold, Hannover). […] Statistical analysis was performed with ANOVA, and significant differences between groups were determined by post hoc comparison using the Dunn test.
(§2) Membrane homogenates of human embryonic kidney (HEK) 293 cells stably transfected with cDNA coding for rat CRF receptor, type 1 (rCRFR1) or mouse CRF receptor, type 2β (mCRFR2β) were prepared according to standard protocols (see, e.g., Sambrook et al., Molecular Cloning: A Laboratory Manual, 2nd. Edition, Cold Spring Habor Laboratory Press, Cold Spring Habor, N.Y., 1989; Ausubel et al., Current Protocols in Molecular Biology, Green Publishing Associates and Wiley Interscience, NY, 1989).

[2] = target: T2, mCRFR2β (Mus musculus, UniProt Q60748); assay: Displacement of [^125I-Tyr^0]Svg from membranes of HEK-mCRFR2β cells; format: binding
T2 construct: expressed in transfected cells; host or cells: HEK 293 cells, stably transfected (HEK-mCRFR2β); membrane homogenates
Method: as §1, §2

[3] = target: T1, rCRFR1; assay: cAMP stimulation / inhibition of oCRF-stimulated cAMP production in HEK-rCRFR1 cells; format: cell-based
Method: (§3) HEK-rCRFR1 cells or HEK-mCRFR2β cells were incubated with different CRF agonists in the presence or absence of 1 μM or 10 nM antagonist, or CRF antagonist (c=1 μM) alone. After removal of the medium, cells were lyzed with aqueous 6% trichloroacetic acid (5 min, 100° C.) (Rühmann, A., A. K. E. Köpke, F. M. Dautzenberg, and J. Spiess, Proc. Natl. Acad. Sci. USA 93: 10609-10613, 1996). The cell lysates were stored at −70° C. until assayed with a RIA kit (Amersham, Little Chalfont). […] Statistical significance was determined across groups with ANOVA, and significant differences between groups were determined by post hoc comparison using the Dunn test.
(§4) Intrinsic activities were measured at peptide concentrations generating maximal formation of cAMP in HEK-rCRFR1 or HEK-mCRFR2β cells.

[4] = target: T2, mCRFR2β; assay: cAMP stimulation / inhibition of Svg-stimulated cAMP production in HEK-mCRFR2β cells; format: cell-based
Method: as §3, §4

[5] = target: mouse CRF receptor, type 2β (mCRFR2β) (mouse) (UniProt Q60748); assay: displacement of [125I-Tyr0]Svg from HEK-mCRFR2β membranes
[6] = target: T3, rat CRF receptor, type 1 (rCRFR1) (rat, UniProt P35353 24-415); assay: displacement of [125I-Tyr0]oCRF from HEK-rCRFR1 membranes
T3 construct: whole, on cells; cAMP assays on the whole cells; also called HEK-rCRFR1 cells
T3 sequence (looked up): T1 sequence (P35353 24-415)

[7] = target: T3, rat CRF receptor, type 1 (rCRFR1); assay: as above; remark: listed apart in the source
Method: as §1

[8] = target: T3, rat CRF receptor, type 1 (rCRFR1); assay: as above; remark: listed apart in the source
Method: as §1

[9] = target: mouse CRF receptor, type 2β (mCRFR2β) (mouse) (UniProt Q60748); assay: Kd(rCRFR1)/Kd(mCRFR2β) of the peptide normalised to that of astressin; radioligand displacement
[10] = read-out: Kd(rCRFR1), Table 1, [^125I-Tyr^0]oCRF as competitive ligand, recombinant rCRFR1, HEK 293 membranes
[11] = read-out: Kd(mCRFR2β), Table 1, [^125I-Tyr^0]Svg as competitive ligand, recombinant mCRFR2β, HEK 293 membranes
[12] = read-out: Kd, binding to rCRFR1, membranes of HEK-rCRFR1 cells
[13] = read-out: Kd, binding to mCRFR2β, membranes of HEK-mCRFR2β cells

Molecule: [DLeu^11, Glu^12]rUcn(11-40) [compound 9]
- Kd [1, 10]: 91.1 ± 21.2 nM
- Kd [2, 11]: 27.9 ± 3.4 nM

Molecule: [DPhe^11, Glu^12]rUcn(11-40) [compound 8]
- Kd [1, 12]: 68.2 ± 20.5 nM
- Kd [2, 13]: 9.5 ± 2 nM

Molecule: [DPhe^11]rUcn(11-40) [compound 7]
- Kd [1, 10]: 33 ± 5.9 nM
- Kd [2, 11]: 5.2 ± 1.5 nM

Molecule: [DPhe^12, Nle^21,38]h/rCRF(12-41) [compound 5, reference compound]
- Kd [1, 10]: 46.4 ± 9.4 nM
- Kd [2, 11]: 17.7 ± 2.2 nM

Molecule: [DPhe^12]oCRF(12-41) [compound 6]
- Kd [1, 10]: 290 ± 74.7 nM
- Kd [2, 11]: 154 ± 26.8 nM

Molecule: cyclo(29-32)[DPhe^11, Glu^29, Lys^32]rUcn(11-40) [compound 10]
- Kd [1, 10]: 47.1 ± 8.9 nM
- Kd [2, 11]: 22.4 ± 4.6 nM

Molecule: cyclo(30-33)[DPhe^12, Nle^21,38, Glu^30, Lys^33]h/rCRF(12-41) [compound 3, reference compound]
- rCRFR1 relative in vitro potency ([3]; Table 2, 1 μM antagonist, cAMP production stimulated by 1 nM oCRF, oCRF alone = 1.00 (lower = stronger inhibition)): 0.11 ± 0.03^f
- HEK-rCRFR1 cells rel. IA (relative intrinsic activity) ([3]; Table 4, 1 μM CRF antagonist alone, cAMP production, oCRF = 1.00): 0.10 ± 0.02
- HEK-rCRFR1 cells rel. pot. (relative potency) ([3]; Table 4, 1 μM antagonist, cAMP production stimulated by 1 nM oCRF, oCRF alone = 1.00): 0.11 ± 0.03
- mCRFR2β relative in vitro potency ([4]; Table 2, 10 nM antagonist, cAMP production stimulated by 1 nM Svg, Svg alone = 1.00 (lower = stronger inhibition)): 0.57 ± 0.04
- HEK-mCRFR2β cells rel. pot. (relative potency) ([4]; Table 4, 10 nM antagonist, cAMP production stimulated by 1 nM Svg, Svg alone = 1.00): 0.57 ± 0.04
- HEK-mCRFR2β cells rel. IA (relative intrinsic activity) ([4]; Table 4, 1 μM CRF antagonist alone, cAMP production, Svg = 1.00): 0.004 ± 0.001

- Kd [5]: 6.4 nM
- Kd [6]: 60.3 nM
Molecule: α-helical CRF(9-41) (peptide)

Molecule: α-helical CRF(9-41) [compound 4, reference compound]
- Kd [1, 12]: 60.3 ± 10.6 nM
- Kd [2, 13]: 6.4 ± 0.9 nM

- Kd [7]: 5.7 nM
- Kd [8]: 5.7 nM
B1: astressin, cyclo(30-33)[DPhe^12, Nle^21,38, Glu^30, Lys^33]h/rCRF(12-41) (peptide)
peptide: FHLLREVLEBARAEQLAQEAHKNRKLBEII
modifications: D-Phe at 12; Nle at 21 and 38; cyclo(30-33) side-chain bridge between Glu30 and Lys33 (h/rCRF numbering)
notes: also called compound 3

- Kd [5]: 17.7 nM
- Kd [7]: 46.4 nM
B2: [DPhe^12, Nle^21,38]h/rCRF(12-41) (peptide)
peptide: FHLLREVLEMARAEQLAQQAHSNRKLMEII
modifications: D-Phe at 12; Nle at 21 and 38 (h/rCRF numbering)
notes: also called compound 5

- Kd [5]: 5.2 nM
- Kd [7]: 33 nM
B3: [DPhe^11]rUcn(11-40) (peptide)
peptide: FHLLRTILELARTQSQRERAEQNRIIFDSV
modifications: D-Phe at 11 (rUcn numbering)
notes: also called compound 7

- Kd [5]: 27.9 nM
- Kd [7]: 91.1 nM
B4: [DLeu^11, Glu^12]rUcn(11-40) (peptide)
peptide: B3 peptide with F1L, H2E
modifications: D-Leu at 11 (rUcn numbering)
notes: also called compound 9

- Kd [5]: 22.4 nM
- Kd [7]: 47.1 nM
B5: cyclo(29-32)[DPhe^11, Glu^29, Lys^32]rUcn(11-40) (peptide)
peptide: B3 peptide with R19E, Q22K
modifications: D-Phe at 11; cyclo(29-32) side-chain bridge between Glu29 and Lys32 (rUcn numbering)
notes: also called compound 10

- Kd [5]: 9.5 nM
- Kd [7]: 68.2 nM
B6: [DPhe^11, Glu^12]rUcn(11-40) (peptide)
peptide: B3 peptide with H2E
modifications: D-Phe at 11 (rUcn numbering)
notes: also called compound 8

- Kd [7]: 290 nM
B7: [DPhe^12]oCRF(12-41) (peptide)
peptide: FHLLREVLEMTKADQLAQQAHSNRKLLDIA
modifications: D-Phe at 12 (oCRF numbering)
notes: also called compound 6

B8: ATB-cyclo(30-33)[Nle^21,38, Glu^30, Ala^32, Lys^33]h/rCRF(13-41) (peptide)
peptide: {ATB}-HLLREVLE[Nle]ARAEQLAQEAAKNRKL[Nle]EII
modifications: lactam 18-21; ends not checked
notes: also called ATB-[Ala^32]astressin; compound 15
- Kd [5]: 2.6 nM
- Selectivity [9]: 1.43

B9: ATB-cyclo(30-33)[Nle^21,38, Glu^30, Tyr^32, Lys^33]h/rCRF(13-41) (peptide)
peptide: {ATB}-HLLREVLE[Nle]ARAEQLAQEAYKNRKL[Nle]EII
modifications: lactam 18-21; ends not checked
notes: also called ATB-[Tyr^32]astressin; compound 16
- Kd [5]: 38.2 nM
